Test results: paper PMC8671752, “Effects of ex vivo Extracorporeal Membrane Oxygenation Circuits on Sequestration of Antimicrobial Agents” (Frontiers in Medicine, 2021)

Columns and labels:
[1] = SD
[2] = SD; remark: listed apart in the source
[3] = pH 7.25; SD

Drug recovery (%) from control group at 24 h [1]: 89.06 (14.40) %
Mean drug recovery, Control-3 h (Maquet experiment) [1]: 101% (5%)
Mean drug recovery, Control-6 h (Maquet experiment) [1]: 96% (0%)
Mean drug recovery, Control-12 h (Maquet experiment) [1]: 88% (5%)
Mean drug recovery, Control-24 h (Maquet experiment) [1]: 83% (14%)
Mean drug recovery, Maquet circuit, 5 min [2]: 97% (2%)
Mean drug recovery, Maquet circuit, 15 min [2]: 98% (2%)
Mean drug recovery, Maquet circuit, 30 min [2]: 100% (5%)
Mean drug recovery, Maquet circuit, 1 h [2]: 102% (3%)
Mean drug recovery, Maquet circuit, 3 h [2]: 93% (10%)
Mean drug recovery, Maquet circuit, 6 h [2]: 91% (8%)
Mean drug recovery, Maquet circuit, 12 h [2]: 86% (5%)
Mean drug recovery, Maquet circuit, 24 h [2]: 80% (13%)
Drug recovery (%) from circuits at 24 h [3]: 66.64 (24.37) %
Substance: teicoplanin
